Experimental findings from ChEMBL document CHEMBL3045932, “Involvement of Esterase in Phytotoxicity of a New Pyrrolinone Compound, Methyl 1-[1-(3,5-Dichlorophenyl)-1-methylethyl]-2,3-dihydro-4-methyl-2-oxo-3-phenyl-1H-pyrrole-3-carboxylate, to Early Watergrass (Echinochloa oryzicola) and Rice (Oryza sativa)” (J Pestic Sci, 2005) are described below.

A short description of the experiment: Selectivity ratio of I50 for Oryza sativa to I50 for Echinochloa oryzicola by hydroponics test.

On to `CC1=C(c2ccccc2)C(=O)N(C(C)(C)c2cc(Cl)cc(Cl)c2)C1`, for which the Selectivity ratio came out at 10.
Consider `COC(=O)C1(c2ccccc2)C(=O)N(C(C)(C)c2cc(Cl)cc(Cl)c2)C=C1C` (configuration not stated), for which the Selectivity ratio turned out to be 104.
